Data from publication PMC7611940, “A Conformation Selective Mode of Inhibiting SRC Improves Drug Efficacy and Tolerability” (Cancer Research, 2021).

Assays:
Assay in all cases: biochemical
PLK4 = PLK4 (Homo sapiens, UniProt O00444); details: read-out: % remaining activity
YES = molecular target: T1, YES (Homo sapiens, UniProt P07947); details: read-out: % remaining activity
T1 construct: gene YES1

BRSK1 = BRSK1 (Homo sapiens, UniProt Q8TDC3); details: read-out: % remaining activity
PLK1 = PLK1 (Homo sapiens, UniProt P53350); details: read-out: % remaining activity
SNARK = molecular target: T2, SNARK (Homo sapiens, UniProt Q9H093); details: read-out: % remaining activity
T2 construct: gene NUAK2

HIPK1 = HIPK1 (Homo sapiens, UniProt Q86Z02); details: read-out: % remaining activity
TYRO3 = TYRO3 (Homo sapiens, UniProt Q06418); details: read-out: % remaining activity
DAPK2 = DAPK2 (Homo sapiens, UniProt Q9UIK4); details: read-out: % remaining activity
STK38L = STK38L (Homo sapiens, UniProt Q9Y2H1); details: read-out: % remaining activity
CK2a2 = molecular target: T3, CK2a2 (Homo sapiens, UniProt P19784); details: read-out: % remaining activity
T3 construct: gene CSNK2A2

EPHA7 = EPHA7 (Homo sapiens, UniProt Q15375); details: read-out: % remaining activity
MNK2 = molecular target: T4, MNK2 (Homo sapiens, UniProt Q9HBH9); details: read-out: % remaining activity
T4 construct: gene MKNK2

PAK4 = PAK4 (Homo sapiens, UniProt O96013); details: read-out: % remaining activity
PBK = PBK (Homo sapiens, UniProt Q96KB5); details: read-out: % remaining activity
CDK4/cyclin D3 = CDK4/cyclin D3 (Homo sapiens, UniProt P11802); details: read-out: % remaining activity
MARK1 = MARK1 (Homo sapiens, UniProt Q9P0L2); details: read-out: % remaining activity
FGR = FGR (Homo sapiens, UniProt P09769); details: read-out: % remaining activity
PKAcb = molecular target: T5, PKAcb (Homo sapiens, UniProt P22694); details: read-out: % remaining activity
T5 construct: gene PRKACB

ERK5 = molecular target: T6, ERK5 (Homo sapiens, UniProt Q13164); details: read-out: % remaining activity
T6 construct: gene MAPK7

VEGFR2 = molecular target: T7, VEGFR2 (Homo sapiens, UniProt P35968); details: read-out: % remaining activity
T7 construct: gene KDR

DDR2 = DDR2 (Homo sapiens, UniProt Q16832); details: read-out: % remaining activity
ALK3 = molecular target: T8, ALK3 (Homo sapiens, UniProt P36894); details: read-out: % remaining activity
T8 construct: gene BMPR1A

MAP4K2 = MAP4K2 (Homo sapiens, UniProt Q12851); details: read-out: % remaining activity
IKKa = molecular target: T9, IKKa (Homo sapiens, UniProt O15111); details: read-out: % remaining activity
T9 construct: gene CHUK

RSK2 = molecular target: T10, RSK2 (Homo sapiens, UniProt P51812); details: read-out: % remaining activity
T10 construct: gene RPS6KA3

SGK3 = SGK3 (Homo sapiens, UniProt Q96BR1); details: read-out: % remaining activity
PKG1a = molecular target: T11, PKG1a (Homo sapiens, UniProt Q13976); details: read-out: % remaining activity
T11 construct: gene PRKG1

TSSK3 = TSSK3 (Homo sapiens, UniProt Q96PN8); details: read-out: % remaining activity
ARG = molecular target: T12, ARG (Homo sapiens, UniProt P42684); details: read-out: % remaining activity
T12 construct: gene ABL2

PKAcg = molecular target: T13, PKAcg (Homo sapiens, UniProt P22612); details: read-out: % remaining activity
T13 construct: gene PRKACG

STK32B = STK32B (Homo sapiens, UniProt Q9NY57); details: read-out: % remaining activity
CAMKK1 = CAMKK1 (Homo sapiens, UniProt Q8N5S9); details: read-out: % remaining activity
DYRK1A = DYRK1A (Homo sapiens, UniProt Q13627); details: read-out: % remaining activity
PRKD3 = PRKD3 (Homo sapiens, UniProt O94806); details: read-out: % remaining activity
PRKX = PRKX (Homo sapiens, UniProt P51817); details: read-out: % remaining activity
SRC = SRC (Homo sapiens, UniProt P12931)

remaining activity at 1 µM (PLK4): 117%
remaining activity at 1 µM (YES): 1.8%
remaining activity at 1 µM (BRSK1): 115%
remaining activity at 1 µM (PLK1): 109%
remaining activity at 1 µM (SNARK): 105%
remaining activity at 1 µM (HIPK1): 100%
remaining activity at 1 µM (TYRO3): 110%
remaining activity at 1 µM (DAPK2): 99.5%
remaining activity at 1 µM (STK38L): 100%
remaining activity at 1 µM (CK2a2): 176%
remaining activity at 1 µM (EPHA7): 98.1%
remaining activity at 1 µM (MNK2): 107%
remaining activity at 1 µM (PAK4): 107%
remaining activity at 1 µM (PBK): 104%
remaining activity at 1 µM (CDK4/cyclin D3): 96.6%
remaining activity at 1 µM (MARK1): 100%
remaining activity at 1 µM (FGR): 1.3%
remaining activity at 1 µM (PKAcb): 74.3%
remaining activity at 1 µM (ERK5): 98.4%
remaining activity at 1 µM (VEGFR2): 120%
remaining activity at 1 µM (DDR2): 102%
remaining activity at 1 µM (ALK3): 98.2%
remaining activity at 1 µM (MAP4K2): 90.6%
remaining activity at 1 µM (IKKa): 87.6%
remaining activity at 1 µM (RSK2): 97.1%
remaining activity at 1 µM (SGK3): 83.4%
remaining activity at 1 µM (PKG1a): 96.6%
remaining activity at 1 µM (TSSK3): 112%
remaining activity at 1 µM (ARG): 28.7%
remaining activity at 1 µM (PKAcg): 102%
remaining activity at 1 µM (STK32B): 119%
remaining activity at 1 µM (CAMKK1): 104%
remaining activity at 1 µM (DYRK1A): 95.3%
remaining activity at 1 µM (PRKD3): 105%
remaining activity at 1 µM (PRKX): 98.6%
IC50 (SRC): < 0.5 nM
Compound: COc1cc(-c2nn(CCN3CCC(N(C)C)CC3)c3ncnc(N)c23)ccc1NC(=O)OC(C)(C)C [eCF506]
